Literature values in article PMC12332667, “Role of Structural Modifications in Peptidomimetic Compounds as Potential Antimicrobial Agents against Staphylococcus aureus and Streptococcus pyogenes: Balancing Bioavailability, Safety, and Antimicrobial Activity” (ACS Omega, 2025).

Design: method as in PMID 10517933
Settings: uninflamed organism; reference number not given, probably ref 82; cited from earlier work

For penicillin, the “penetration (BBB)” value is given as 1%.
